# Values quoted from earlier work as cited in publication PMC4613811 (Lung cancer (Amsterdam, Netherlands), 2015).
# System: NSCLC with EGFR activating mutations
# Details: cited from earlier work
smiles,measurement,setting,value
COc1cc2ncnc(Nc3ccc(F)c(Cl)c3)c2cc1OCCCN1CCOCC1 [gefitinib],time to development of resistance in the majority of patients,NSCLC patients with EGFR activating mutations,less than 1 year
same,response rates (RRs),NSCLC patients with known EGFR activating mutations,60–70%
